Experimental findings from PubChem BioAssay (NCI) are described below.

“And” between values parts separate entries of the source, which are not always exact repeats. Equal entries are not always repeated. Only a part is listed here, and it is no random draw.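 Cells were grown in 96-well plates and exposed to the test compound at a single concentration for 48 hours; results are reported as percent growth, with values below 10 considered active.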 The source made the active and inactive calls.

The test concerns MDA-MB-468 breast. The experiment in a line: NCI-60 one-dose screen, 48 h (100 = growth as untreated, 0 = no growth, -100 = all killed). The note with it: 10 µM.
Regarding `CC1(C)NC(=O)N(CCN(CCCl)CCCl)C1=O`, the growth is inactive: 99.5%. With `O=CC(O)C(O)C(O)C(O)CN(CCCl)CCCl` (stereo not given), the growth is inactive: 98.6%.

Take `NC(Cc1cccc(N(CCCl)CCCl)c1)C(=O)O` (stereo not given): the growth was inactive: 77.6% and inactive: 83.2%. For `Cc1ccc(NC2(C(N)=O)CCNCC2)cc1`, the growth is inactive: 103%. In the case of `C1CCNCC1.O=C(O)C(O)c1ccc(N(CCCl)CCCl)cc1` (stereo not given), the growth is inactive: 94.3%.

Turning to `Fc1ccc(CCN(CCCl)CCCl)cc1`, the growth is inactive: 97.4%. Take `CCNC(=O)Cc1ccc(N(CCCl)CCCl)cc1`: the growth is inactive: 73.2%. With `ClCCN(CCCl)Cc1nc2cc(Cl)c(Cl)cc2[nH]1`, the growth was inactive: 50.3%. Turning to `BrCCN(CCBr)CCCN(CCBr)CCBr`, the growth is inactive: 96.7%. As for `N#CC1(Nc2ccc(Cl)cc2)CCN(Cc2ccccc2)CC1`, the growth is inactive: 86.7%. On to `CC(C)NP(=O)(F)NC(C)C`, for which the growth is inactive: 104%. With `N#Cc1ccc(N(CCCl)CCCl)cc1`, the growth was inactive: 111%. For `Cc1ccccc1NC1(C#N)CCN(Cc2ccccc2)CC1`, the growth is inactive: 115%. `O/N=C/c1ccc(N(CCCl)CCCl)cc1`: the growth was inactive: 57.6%. In the case of `COc1ccc(N)cc1CN(CCCl)CCCl`, the growth is inactive: 75.1%. For the molecule `CCOC(=O)c1ccc(N(CCCl)CCCl)cc1`, the growth was inactive: 107%. As for `O=c1[nH]cc(CN(CCCl)CCCl)c(=O)[nH]1`, the figure is inactive: 97.5%. As to `O=C1CCN(Cc2ccccc2)CC1`, the growth is inactive: 99.7%. For the molecule `O=Cc1ccc(N(CCCl)CCCl)cc1Cl`, the growth was active: -64.3%. On to `N#CC1(Nc2ccccc2)CCN(Cc2ccccc2)CC1`, for which the growth is inactive: 82.3%. For `COc1c(C)cc(N(CCCl)CCCl)c2ccccc12`, the growth was inactive: 38.9%. Regarding `O=C(O)Cc1c[nH]c2ccc(N(CCCl)CCCl)cc12`, the growth was inactive: 106%. In the case of `C[N+](C)(CCCl)CCCl`, the growth is inactive: 104%. As for `Cc1ccccc1CN(CCCl)CCCl`, the growth is inactive: 78%. As for `CCOc1ccc(N(CCCl)CCCl)cc1`, the figure is inactive: 47.7%; as for `Cc1cccc(C(=O)N(CCCl)CCCl)c1`, inactive: 96.4%. For the molecule `COc1cccc(N(CCCl)CCCl)c1OC`, the growth is inactive: 46.9%. As for `Cc1ccc(CN(CCCl)CCCl)cc1C`, the figure is inactive: 93.2%; as for `COc1cc(CN(CCCl)CCBr)cc(OC)c1`, inactive: 113%; as for `c1ccc(CN2CCC(Nc3ccccc3)CC2)cc1`, inactive: 104%. Take `[O-][n+]1onc(-c2ncon2)c1-c1ncon1`: the growth was inactive: 44.5%.

As for `Cc1ccc(NC2(C(N)=O)CCN(Cc3ccccc3)CC2)cc1`, the growth was inactive: 104%.

Consider `Cc1cccc(NC2(C#N)CCN(Cc3ccccc3)CC2)c1`, for which the growth is inactive: 115%. Turning to `NC(Cc1ccccc1N(CCCl)CCCl)C(=O)O` (stereo not given), the growth is inactive: 13%. As for `ClCCN(CCCl)CCc1ccccc1`, the figure is inactive: 109%.
